The target in the assay is T1, human AT1 receptor (Homo sapiens, UniProt P30556).
T1 construct: purchased NEN Life Science Products Inc., Boston, Mass; host or cells: Chinese hamster ovary (CHO) cells, purified membrane preparation
Kind of assay: Competition binding experiment: displacement of wildtype Flu-AII from AT1 receptor by unlabeled ligand. As to conditions: 10 nM Flu-AII, 0.02 units AT1 receptor.

For the substance angiotensin II [AII], the “decrease in fluorescent intensity compared to Flu-AII alone” value is, setting by setting: (1 nM unlabeled competitor) 65%; (10 nM unlabeled competitor) 58%; (300 nM unlabeled competitor) 43%; (3 μM unlabeled competitor) 35%; (100 μM unlabeled competitor) 14%. The “change in competitor concentration required to compete from 90% to 10% specific binding” value (FIG. 2B) is above 100 fold. For the same substance, under “300 μM unlabeled competitor (3×10^4-fold excess)”, the “decrease in fluorescent intensity (full competition with Flu-AII for AT1 receptor binding)” value is “no decrease in fluorescent intensity”.
